Results reported in patent US7696383B2 (Solvay Pharmaceuticals B.V., priority 2007, dated 2010).

By UniProt entry, the sequences of proteins in these tests, tags left out. Residues count along the entry.
UniProt Q63380, 1-617: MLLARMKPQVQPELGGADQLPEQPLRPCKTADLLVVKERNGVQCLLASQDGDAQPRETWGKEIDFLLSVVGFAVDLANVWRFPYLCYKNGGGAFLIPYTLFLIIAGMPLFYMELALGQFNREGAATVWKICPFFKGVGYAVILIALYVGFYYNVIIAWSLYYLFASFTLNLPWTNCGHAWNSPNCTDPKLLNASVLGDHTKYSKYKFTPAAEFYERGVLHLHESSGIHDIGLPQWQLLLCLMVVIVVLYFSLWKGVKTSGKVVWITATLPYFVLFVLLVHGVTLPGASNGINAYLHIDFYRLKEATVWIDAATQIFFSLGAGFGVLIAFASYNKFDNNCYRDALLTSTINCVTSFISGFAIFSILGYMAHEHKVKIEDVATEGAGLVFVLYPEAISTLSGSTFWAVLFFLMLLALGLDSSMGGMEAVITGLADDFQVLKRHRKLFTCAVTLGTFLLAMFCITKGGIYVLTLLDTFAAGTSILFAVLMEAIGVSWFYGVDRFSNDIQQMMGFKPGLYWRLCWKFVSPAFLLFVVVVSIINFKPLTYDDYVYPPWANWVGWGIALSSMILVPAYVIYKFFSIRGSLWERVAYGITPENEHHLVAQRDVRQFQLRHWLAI
UniProt P23977, whole entry: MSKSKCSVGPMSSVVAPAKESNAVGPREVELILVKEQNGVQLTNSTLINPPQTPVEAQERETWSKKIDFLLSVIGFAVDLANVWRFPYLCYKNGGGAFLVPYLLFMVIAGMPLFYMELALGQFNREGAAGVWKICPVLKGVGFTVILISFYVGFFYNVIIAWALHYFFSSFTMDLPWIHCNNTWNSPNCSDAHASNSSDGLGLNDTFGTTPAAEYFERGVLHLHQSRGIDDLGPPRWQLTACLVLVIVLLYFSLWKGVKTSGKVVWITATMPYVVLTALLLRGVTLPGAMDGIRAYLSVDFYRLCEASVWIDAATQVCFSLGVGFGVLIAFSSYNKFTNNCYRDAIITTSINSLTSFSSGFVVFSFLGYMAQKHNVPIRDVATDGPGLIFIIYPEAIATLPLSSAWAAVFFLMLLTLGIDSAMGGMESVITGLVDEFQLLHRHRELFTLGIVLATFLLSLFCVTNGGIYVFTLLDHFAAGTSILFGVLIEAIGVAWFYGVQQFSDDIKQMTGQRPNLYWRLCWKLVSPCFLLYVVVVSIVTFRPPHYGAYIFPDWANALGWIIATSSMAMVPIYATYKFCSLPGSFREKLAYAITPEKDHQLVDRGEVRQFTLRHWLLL
UniProt Q01959, whole entry: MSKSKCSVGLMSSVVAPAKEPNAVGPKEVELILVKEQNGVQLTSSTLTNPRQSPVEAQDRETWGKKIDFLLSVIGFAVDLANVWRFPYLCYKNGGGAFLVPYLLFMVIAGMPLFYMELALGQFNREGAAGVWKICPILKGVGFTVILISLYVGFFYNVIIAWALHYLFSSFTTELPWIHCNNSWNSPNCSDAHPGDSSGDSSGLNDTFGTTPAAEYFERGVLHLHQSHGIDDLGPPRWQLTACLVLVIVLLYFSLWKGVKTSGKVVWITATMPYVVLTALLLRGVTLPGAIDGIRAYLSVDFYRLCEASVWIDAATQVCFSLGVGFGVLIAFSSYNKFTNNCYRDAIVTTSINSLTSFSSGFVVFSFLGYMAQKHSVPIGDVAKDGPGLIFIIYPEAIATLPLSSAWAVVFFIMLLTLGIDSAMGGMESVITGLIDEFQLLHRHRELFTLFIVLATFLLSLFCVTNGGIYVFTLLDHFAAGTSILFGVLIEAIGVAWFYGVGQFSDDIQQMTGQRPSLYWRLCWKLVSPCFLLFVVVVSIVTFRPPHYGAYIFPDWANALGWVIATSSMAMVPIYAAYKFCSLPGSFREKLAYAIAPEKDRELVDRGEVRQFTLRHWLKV
UniProt P31645, whole entry: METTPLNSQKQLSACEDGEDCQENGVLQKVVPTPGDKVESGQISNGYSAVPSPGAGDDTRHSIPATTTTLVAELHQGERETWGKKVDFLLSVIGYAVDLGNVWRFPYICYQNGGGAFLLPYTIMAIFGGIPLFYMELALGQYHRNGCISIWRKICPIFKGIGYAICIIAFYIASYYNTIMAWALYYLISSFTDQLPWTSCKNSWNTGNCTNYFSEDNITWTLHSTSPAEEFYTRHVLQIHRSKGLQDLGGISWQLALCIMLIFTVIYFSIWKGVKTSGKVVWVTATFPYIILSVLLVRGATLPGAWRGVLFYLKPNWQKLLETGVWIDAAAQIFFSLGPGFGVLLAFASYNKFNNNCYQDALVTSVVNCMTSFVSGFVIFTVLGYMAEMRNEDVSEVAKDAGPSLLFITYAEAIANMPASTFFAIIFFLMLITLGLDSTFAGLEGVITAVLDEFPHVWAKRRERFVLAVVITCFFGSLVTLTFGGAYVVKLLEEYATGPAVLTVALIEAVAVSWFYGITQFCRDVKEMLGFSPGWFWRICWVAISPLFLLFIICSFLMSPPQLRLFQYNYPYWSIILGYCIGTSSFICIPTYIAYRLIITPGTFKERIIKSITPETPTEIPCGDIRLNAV
UniProt P23975, whole entry: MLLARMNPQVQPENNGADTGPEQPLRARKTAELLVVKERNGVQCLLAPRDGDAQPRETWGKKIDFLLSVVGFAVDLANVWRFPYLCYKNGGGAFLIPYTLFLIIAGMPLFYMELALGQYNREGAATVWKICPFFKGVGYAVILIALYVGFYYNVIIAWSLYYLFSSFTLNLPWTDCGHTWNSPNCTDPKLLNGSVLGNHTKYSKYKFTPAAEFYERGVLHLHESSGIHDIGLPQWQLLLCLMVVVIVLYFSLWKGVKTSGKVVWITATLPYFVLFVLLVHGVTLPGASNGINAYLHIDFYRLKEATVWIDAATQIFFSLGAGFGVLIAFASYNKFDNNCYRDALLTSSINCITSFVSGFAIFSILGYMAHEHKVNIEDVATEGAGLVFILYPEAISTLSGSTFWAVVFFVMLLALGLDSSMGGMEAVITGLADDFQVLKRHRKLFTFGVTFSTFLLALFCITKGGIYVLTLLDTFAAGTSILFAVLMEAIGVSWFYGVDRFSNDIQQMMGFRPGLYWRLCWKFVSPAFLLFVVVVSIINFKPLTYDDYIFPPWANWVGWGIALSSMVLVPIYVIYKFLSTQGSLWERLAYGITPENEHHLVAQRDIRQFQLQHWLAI

Columns and labels:
[1] = target: [3H]-norepinephrine reuptake (Rattus norvegicus, UniProt Q63380); assay: In vitro functional inhibition of [3H]-norepinephrine reuptake, hypothalamus synaptosomes; assay type: biochemical; conditions: read-out: Noradrenaline inhibition pIC50 (converted)
[2] = target: [3H]-dopamine reuptake (Rattus norvegicus, UniProt P23977); assay: In vitro functional inhibition of [3H]-dopamine reuptake, striatum synaptosomes; assay type: biochemical; conditions: read-out: Dopamine inhibition pIC50 (converted)
[3] = target: dopamine reuptake sites (Homo sapiens, UniProt Q01959); assay: In vitro affinity for dopamine reuptake sites; conditions: read-out: Dopamine binding pKi (converted)
[4] = target: serotonin reuptake sites (Homo sapiens, UniProt P31645); assay: In vitro affinity for serotonin reuptake sites
[5] = target: norepinephrine reuptake sites (Homo sapiens, UniProt P23975); assay: In vitro affinity for norepinephrine reuptake sites; conditions: read-out: Noradrenaline binding pKi (converted)

Ki [3] | Ki [4] | Ki [5] | Structure (SMILES) | IC50 [1] | IC50 [2]
– | – | – | COc1ccc(C(CN(C)C)C2(O)CCCCC2)cc1 (racemic) [Venlafaxine, (R,S)-1-(2-(Dimethylamino)-1-(4-methoxyphenyl)ethyl)cyclohexanol] | 0.631 µM | 5.01 µM
6.31 µM | 0.0251 µM | 6.31 µM | CN(C)C[C@@H](c1ccc(O)cc1)C1(O)CCCCC1 [(R)—O-desmethyl-venlafaxine, O-desmethyl-R-Venlafaxine, reference compound] | – | –
12.6 µM | 0.01 µM | 25.1 µM | CN(C)C[C@H](c1ccc(O)cc1)C1(O)CCCCC1 [(S)—O-desmethyl-venlafaxine, O-desmethyl-S-Venlafaxine, reference compound] | – | –
– | – | – | COc1ccc([C@H](CN(C)C)C2(O)CCCCC2)cc1 [reference compound] | – | 3.16 µM
– | – | – | COc1ccc([C@@H](CN(C)C)C2(O)CCCCC2)cc1 [reference compound] | 0.794 µM | –
